# Assay results from US12303500B2, “Method for improving stability of low-concentration atropine ophthalmic preparation” (SHENYANG XINGQI PHARMACEUTICAL CO., LTD., priority 2018, dated 2025).
# Where a name gives a salt, the structure may show the parent alone. Read-outs that look alike come from different tables or passages of the source.
# Conditions: 40°C±2°C, RH 75%±5%; for Related substances: Total impurities: HPLC
structure (smiles),measurement,setting,value
"CN1[C@@H]2CC[C@H]1C[C@@H](OC(=O)C(CO)c1ccccc1)C2 (stereo partly drawn) [Example 160903-P01, atropine sulfate]",Isomers,0th month,Not detected
same,Properties,0th month,Colorless crystal
same,Related substances: Total impurities,0th month,Not detected
same,Isomers,1st month,Not detected
same,Properties,1st month,Colorless crystal
same,Related substances: Total impurities,1st month,Not detected
same,Isomers,2nd month,Not detected
same,Properties,2nd month,Colorless crystal
same,Related substances: Total impurities,2nd month,Not detected
same,Isomers,3rd month,Not detected
same,Properties,3rd month,Colorless crystal
same,Related substances: Total impurities,3rd month,Not detected
same,Isomers,6th month,Not detected
same,Properties,6th month,Colorless crystal
same,Related substances: Total impurities,6th month,Not detected
